Laboratory results taken from PMC8620910, “Design and Synthesis of (2-oxo-1,2-Dihydroquinolin-4-yl)-1,2,3-triazole Derivatives via Click Reaction: Potential Apoptotic Antiproliferative Agents” (Molecules, 2021).

Test system: active Caspase 3
Assay: Caspase 3 activation assay in MCF-7

SMILES: COc1ccc2[nH]c(=O)cc(-n3cc(COc4ccc(C(c5c(O)c6cc(OC)ccc6[nH]c5=O)c5c(O)c6cc(OC)ccc6[nH]c5=O)cc4)nn3)c2c1 [Compound 8g, 3,3’-((4-((1-(6-Methoxy-2-oxo-1,2-dihydroquinolin-4-yl)-1H-1,2,3-triazol-4-yl)methoxy)phenyl)methylene)bis(4-hydroxy-6-methoxyquinolin-2(1H)-one)]
- Caspase 3 Conc: 489.2 ± 4.13 pg/mL
